Data published in patent publication US8877771B2, “Treatment of solid tumors with rapamycin derivatives” (Novartis Pharmaceuticals Corporation, priority 2001, dated 2014).

Test system: B16/BL6 primary tumor and cervical lymph node metastases
Assay: Combination with an antiangiogenic agent (B16/BL6)
Format: in vivo, C57BL/6 mice

CO[C@H]1C[C@@H]2CC[C@@H](C)[C@@](O)(O2)C(=O)C(=O)N2CCCC[C@H]2C(=O)O[C@H]([C@H](C)C[C@@H]2CC[C@@H](OCCO)[C@H](OC)C2)CC(=O)[C@H](C)/C=C(\C)[C@@H](O)[C@@H](OC)C(=O)[C@H](C)C[C@H](C)/C=C/C=C/C=C/1C [Compound A, 40-O-(2-hydroxyethyl)-rapamycin]
treated/controls ratio, metastases (interaction analysis) (metastases): 0.75 | treated/controls ratio, primary tumors (interaction analysis) (primary tumors): 0.77
